Test results published in PMC10958125, “A phase I study of docetaxel plus synthetic lycopene in metastatic prostate cancer patients” (Clinical and Translational Medicine, 2024).

Conditions: human, in vivo

CC(C)=CCC/C(C)=C/C=C/C(C)=C/C=C/C(C)=C/C=C/C=C(C)/C=C/C=C(C)/C=C/C=C(\C)CCC=C(C)C [lycopene]
Increase of plasma docetaxel C max with lycopene: 15.1%
